# Measured values: PubChem BioAssay AID504374 (National Center for Advancing Translational Sciences (NCATS), 2011)
# Sequences of proteins named here, by UniProt entry; tags and fusion partners are left off.
# UniProt Q01196, whole entry, looked up: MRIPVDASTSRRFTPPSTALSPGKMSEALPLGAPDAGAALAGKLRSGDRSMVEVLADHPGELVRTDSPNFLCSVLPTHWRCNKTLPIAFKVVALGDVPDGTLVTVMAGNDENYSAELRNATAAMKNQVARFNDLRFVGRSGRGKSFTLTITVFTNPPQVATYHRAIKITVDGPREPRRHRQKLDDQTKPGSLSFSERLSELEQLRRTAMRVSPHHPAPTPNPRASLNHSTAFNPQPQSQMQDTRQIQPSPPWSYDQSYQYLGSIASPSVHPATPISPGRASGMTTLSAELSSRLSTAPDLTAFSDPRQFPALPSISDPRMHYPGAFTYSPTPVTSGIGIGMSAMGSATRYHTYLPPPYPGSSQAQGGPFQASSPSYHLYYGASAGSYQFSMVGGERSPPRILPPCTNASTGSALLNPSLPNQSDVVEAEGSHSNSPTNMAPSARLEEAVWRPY
# UniProt Q13951, whole entry, looked up: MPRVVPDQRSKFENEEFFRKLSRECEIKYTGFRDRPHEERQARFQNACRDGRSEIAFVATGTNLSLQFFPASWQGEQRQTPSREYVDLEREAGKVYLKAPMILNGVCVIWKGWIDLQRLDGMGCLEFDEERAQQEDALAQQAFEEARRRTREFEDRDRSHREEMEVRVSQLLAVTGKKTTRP
# This is a selection; strong and weak results do not stand in their true shares. Records with an inconclusive call do not appear. Calls of active or inactive are those of the source. Calls follow the shape of the dose curve; as a rule, active = well fitted inhibition curve with a large enough effect; inconclusive = small, poorly fitted or top-dose-only effect, or effect the other way; inactive = flat fitted curve, though single readings scatter.
# Molecular target: Runt-related transcription factor 1 (Homo sapiens) + Core-binding factor subunit beta (Homo sapiens) (UniProt Q01196+Q13951)
# Test: qHTS Assay for Compounds Blocking the Interaction Between CBF-beta and RUNX1 for the Treatment of Acute Myeloid Leukemia: Hit Validation; also: nearly all actives have a fitted effect of over 60% in size
# Conditions: AlphaScreen CBFb-His/RUNX1-biotin binding; at 59.8 µM (top of the series)
# % is scaled to controls: 0 for no effect and ±100 for the full control effect.
row,SMILES,"activity, negative = inhibition"
1,N#CC1(Nc2ccccc2)CCN(Cc2ccccc2)CC1,inactive: 3.4%
